What was measured:
Experiment in all cases: modified G assay titration, peptide vs constant GST-PDZ domain fusion
KIAA1284 = target: T1, KIAA1284 (Homo sapiens, UniProt Q9ULD6); settings: binding of peptide to KIAA1284
T1 construct: made in house; host or cells: E. coli (DH5α, BL21 or JM109)
T1 sequence (Q9ULD6 with tags, fused parts or gaps): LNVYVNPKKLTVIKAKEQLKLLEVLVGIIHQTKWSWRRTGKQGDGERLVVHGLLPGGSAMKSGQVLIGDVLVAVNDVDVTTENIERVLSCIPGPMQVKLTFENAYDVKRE
Protocol: (§1) A Nunc Maxisorp 96 well Immunoplate (Nunc cat#62409-002) was coated with 100 μl of 5 μg/ml goat anti-GST polyclonal antibody (Amersham Pharmacia cat#27-457-01) and incubated overnight at 4° C. The plate was blocked by addition of 200 μl Assay Buffer (2% bovine serum albumin in PBS, pH 7.4) for 1 to 2 hours at room temperature, then washed three times in Assay Buffer.
(§2) 50 μl per well of GST-PDZ fusion proteins (5 μg/ml in Assay Buffer), or, as a negative control, GST polypeptide alone, was added to the plate, and incubated for 1 to 2 hours at 4° C.
(§3) Biotinylated peptides were prepared in Assay Buffer, in half the volume required at 40 μM. HRP-Streptavidin (Zymed cat#43-4323) was diluted 1:1000 in another half volume of Assay Buffer, then mixed with the peptides. The peptide-HRP mixtures were incubated for 20 minutes at room temperature. The plate was washed three times with cold PBS, the peptide-HRP mixtures added at 50 μl per well, and the plate was incubated at room temperature for precisely 30 minutes after the addition of the last peptide.
(§4) The plate was then washed five times with room temperature PBS, and developed by addition of 100 μl/well of HRP substrate solution (3,3′,5,5′, tetramethylbensidine (TMB) (Dako cat#S1600)) for a maximum of 30 minutes in the dark at room temperature. The reaction of HRP and its substrate was terminated by addition of 100 μl of 0.18 M H2SO4 (Sigma cat#S1526), and the absorbance of each well of the plate was read at 450 nm.
(§5) Using the modified G assay described in Example 1, several GST-PDZ domain proteins were tested to determine their relative binding strength to the C-terminal sequences of hCLCA1 and mCLCA3. The Tat-hCLCA1 and Tat-CLCA3 peptides described in Example 1 were titrated against a constant amount of GST-PDZ domain fusion protein and the results are shown below.
(§6) Data was fitted to the equation:
(§7) y=100.0/(1+10^((log(m1)-log(m0))*m2)), where m1=EC50, m2=Hill coefficient, and m0=peptide concentration to calculate the EC50 for the binding of the peptides to the PDZ domains.

Chains of the proteins cited; added tags and fusions are not shown. Residues count along the entry.
UniProt Q9BQQ3, 1-110: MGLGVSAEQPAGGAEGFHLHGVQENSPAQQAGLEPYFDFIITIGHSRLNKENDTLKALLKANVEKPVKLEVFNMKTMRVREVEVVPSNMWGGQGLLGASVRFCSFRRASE

ZO-3 d1 = target: T2, ZO-3 d1 (Homo sapiens, UniProt O95049); settings: binding of peptide to ZO-3 d1
T2 construct: GST-PDZ fusions were produced that each contain an entire PDZ domain (or multiple PDZ domains); made in house; host or cells: E. coli (DH5α, BL21 or JM109)
T2 sequence (O95049 11-93 limits assumed): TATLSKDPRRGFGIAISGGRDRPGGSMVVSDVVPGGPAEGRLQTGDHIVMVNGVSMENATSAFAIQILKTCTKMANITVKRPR
Protocol: as §1, §2, §3, §4, §5, §6, §7

GORASP1 d1 = target: T3, GORASP1 d1 (Homo sapiens, UniProt Q9BQQ3); settings: binding of peptide to GORASP1 d1
T3 construct: made in house; host or cells: E. coli (DH5α, BL21 or JM109)
Protocol: as §1, §2, §3, §4, §5, §6, §7

For `CSCC[C@H](NC(=O)[C@H](CCC(=O)O)NC(=O)[C@H](CCCNC(=N)N)NC(=O)[C@H](CCCNC(=N)N)NC(=O)[C@H](CCCNC(=N)N)NC(=O)[C@H](CCC(N)=O)NC(=O)[C@H](CCCNC(=N)N)NC(=O)[C@H](CCCNC(=N)N)NC(=O)[C@H](CCCCN)NC(=O)[C@H](CCCCN)NC(=O)[C@H](CCCNC(=N)N)NC(=O)CNC(=O)[C@H](Cc1ccc(O)cc1)NC(=O)CCCC[C@@H]1SC[C@@H]2NC(=O)N[C@@H]21)C(=O)N[C@@H](CCC(N)=O)C(=O)N[C@H](C(=O)N[C@H](C(=O)N[C@@H](CC(C)C)C(=O)NCC(=O)N[C@@H](CC(C)C)C(=O)N[C@@H](Cc1c[nH]cn1)C(=O)O)[C@@H](C)O)C(C)C` [Tat-CLCA3], the EC50 (KIAA1284) was 540 nM, the EC50 (ZO-3 d1) was 4100 nM and the EC50 (GORASP1 d1) was 660 nM.

Source: patent US7919584B1, “Methods and compositions for diagnosis and treatment of asthma” (Arbor Vita Corporation, priority 2005, dated 2011)
